The entries are a selection whose mix differs from that of the whole data set. Calls of active or inactive are those of the source. Rule as the data show it: active = inhibition above about 22% (passing the limit was not always enough); inactive = the rest.
biological target: Mu-type opioid receptor (Homo sapiens) + Delta-type opioid receptor (Homo sapiens) (UniProt P35372+P41143); assay: OPRM1-OPRD1 heterodimer inverse agonism – cell-based, luminescence, primary screen (AID 504357); details: cell-based MOR-DOR heterodimer luminescence, at 9.3 µM, hits give high values;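 also: 0% = cells with DMSO and 100% = wells without cells with DMSO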

The chains behind the UniProt entries cited, without tags or fusion partners.
UniProt P35372, whole entry, looked up: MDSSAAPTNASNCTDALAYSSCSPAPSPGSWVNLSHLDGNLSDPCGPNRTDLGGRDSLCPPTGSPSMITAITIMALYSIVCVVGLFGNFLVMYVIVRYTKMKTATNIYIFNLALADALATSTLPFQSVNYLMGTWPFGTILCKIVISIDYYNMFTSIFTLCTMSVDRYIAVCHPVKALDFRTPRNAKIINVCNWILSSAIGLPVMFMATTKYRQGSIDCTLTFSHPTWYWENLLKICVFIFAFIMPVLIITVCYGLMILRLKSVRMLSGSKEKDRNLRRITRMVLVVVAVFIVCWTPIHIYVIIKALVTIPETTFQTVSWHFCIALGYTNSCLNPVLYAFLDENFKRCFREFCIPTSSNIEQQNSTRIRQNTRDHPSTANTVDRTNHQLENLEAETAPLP
UniProt P41143, whole entry, looked up: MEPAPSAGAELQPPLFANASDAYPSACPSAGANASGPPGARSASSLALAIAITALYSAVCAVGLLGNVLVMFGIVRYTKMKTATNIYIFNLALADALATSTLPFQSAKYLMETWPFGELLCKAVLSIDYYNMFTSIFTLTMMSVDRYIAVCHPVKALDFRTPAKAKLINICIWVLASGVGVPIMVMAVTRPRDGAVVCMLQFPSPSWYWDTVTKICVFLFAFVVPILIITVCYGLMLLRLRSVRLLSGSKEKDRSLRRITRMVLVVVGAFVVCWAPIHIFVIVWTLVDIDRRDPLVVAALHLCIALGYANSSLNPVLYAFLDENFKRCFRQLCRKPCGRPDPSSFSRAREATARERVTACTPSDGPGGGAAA

Row | SMILES | inhibition
1 | Cc1ccc2c(c1)C1CN(C)CCC1N2C(=O)c1cccc(S(=O)(=O)N(C)C)c1 (configuration not stated) | inactive: 11.1%
2 | CC(C)N(C(=O)Cn1c(SCC(=O)Nc2nccs2)nc2ccccc21)C(C)C | inactive: 6.16%
3 | CSc1nc(N)nc2c1ncn2CC(=O)NCC(c1ccccc1)c1ccccc1 | inactive: 11.4%
4 | CC1CN(CCn2cnc3c(N)ncnc32)CC(C)O1 (configuration not stated) | inactive: 16.1%
5 | O=C(OC1CN2CCC1CC2)c1ccccc1 (configuration not stated) | inactive: 22.6%
6 | CC(O)CNc1nc2ccccc2n1CC(=O)NC12CC3CC(CC(C3)C1)C2 (configuration not stated) | inactive: -7.26%
7 | CC(C(=O)Nc1ccc2c(c1)OCO2)n1cnc2c1c(=O)n(C)c(=O)n2C (configuration not stated) | inactive: 11.5%
8 | Cc1ccc(OP(=O)(Nc2ccccn2)Oc2ccc(C)cc2)cc1 | inactive: 8.48%
9 | CC(=O)NC(SC(=S)N(CC(C)C)CC(C)C)C(Cl)(Cl)Cl (configuration not stated) | inactive: -17.5%
10 | FC(F)(F)c1nc2ccccc2n1CCNc1nc(CN2CCCCC2)cs1 | inactive: 14.6%
11 | Cn1c(=O)c2c(ncn2CC(=O)Nc2ccccc2N2CCOCC2)n(C)c1=O | inactive: 6.75%
12 | CCc1cccc(CC)c1N(COC)C(=O)Cn1c(C(C)O)nc2ccccc21 (configuration not stated) | inactive: 11.9%
13 | CC(/C=N/NC(=O)Cn1cnc2c1c(=O)n(C)c(=O)n2C)=C\c1ccco1 | inactive: 12.1%
14 | CC(C)NC(=O)Cn1cnc2c1c(=O)n(C)c(=O)n2C | inactive: 8.64%
15 | Cc1sc2ncnc(NC3CCN(Cc4ccccc4)CC3)c2c1C | inactive: -13.8%
16 | COC(=O)c1cc2c(s1)N=C(c1ccccc1)N(C)P2(=O)N1CCOCC1 (configuration not stated) | inactive: -4.8%
17 | Cn1c(=O)c2c(ncn2CC(=O)NC2CCCCC2)n(C)c1=O | inactive: 8.11%
18 | Cc1nc2ccccc2n1CC(=O)NC1CCCC1 | inactive: 16.7%
19 | CCOCN(C(=O)Cn1c(CO)nc2ccccc21)c1c(C)cccc1CC | inactive: -11.3%
20 | Cc1ccc(Cn2nnnc2CN2CCC(n3nnc4ccccc43)CC2)cc1 | inactive: 14.2%
21 | O=c1oc2ccccc2c2c1ncn2CCN1CCOCC1 | inactive: 7.94%
22 | COc1ccc(OC)c(C(=O)CSc2nc3ccccc3n2CC(=O)NC(C)(C)C)c1 | inactive: 12.4%
23 | O=C(Cn1c2[n+](c3ccc(C(F)(F)F)cc31)CCCCC2)Nc1ccccc1 | inactive: 4.91%

Row | SMILES | inhibition
24 | COc1ccccc1OCCSc1nc2ccccc2n1CC(N)=O | inactive: 16.4%
25 | C[C@H]1OP(=O)(Oc2ccccc2)[C@H](O)[C@H](O)[C@H]1N=[N+]=[N-] (some centres not stated) | inactive: 5.6%
26 | Cc1cc2ncn(C3CC(=O)N(Cc4ccc(N5CCCC5=O)cc4)C3=O)c2cc1C (configuration not stated) | inactive: 8.67%
27 | CCN(CC)CCn1c(NS(=O)(=O)c2ccc(Cl)cc2)nc2ccccc21 | inactive: -8.32%
28 | CC(C)N(C(=O)Cn1c(SCC(=O)NC2CC2)nc2ccccc21)C(C)C | inactive: 12.4%
29 | O=P(Nc1nc2ccccc2s1)(c1ccccc1)c1ccccc1 | inactive: 16.1%
30 | Cn1c(=O)c2c(ncn2CC(=O)Nc2nc(-c3ccc(F)c(F)c3)cs2)n(C)c1=O | inactive: 5.08%
31 | Cn1c(=O)n(CC(=O)Nc2cccnc2)c2ccccc21 | inactive: 5.59%
32 | N=c1n(CCN2CCCC2)c2ccccc2n1CC(O)c1ccco1 (configuration not stated) | inactive: 22.6%
33 | Cn1c(=O)c2c(ncn2CC(=O)N2CCOCC2)n(C)c1=O | inactive: 14.3%
34 | C[C@H](NC(=O)N1CCn2c1nc1ccccc12)C(=O)NCCc1ccccc1 | inactive: 17.3%
35 | CC(O)CNc1nc2ccccc2n1CC(=O)NCC(F)(F)F (configuration not stated) | inactive: 10.6%
36 | O=C(CSc1nc2ccccc2n1CC(=O)N1CCCC1)N1CCN(C(=O)c2ccco2)CC1 | inactive: 3.54%
37 | CCN(CC)CCn1c(N)nc2ccccc21 | inactive: 1.42%
38 | Cc1ccc(C(C(=O)NC2CCCCC2)N(Cc2ccco2)C(=O)Cn2cnc3ccccc32)cc1 (configuration not stated) | inactive: -15.5%
39 | CCN(CC)CCn1c(NCc2ccccn2)nc2ccccc21 | inactive: -0.82%
40 | O=P(Nc1ccccn1)(c1ccc(Br)cc1)c1ccc(Br)cc1 | inactive: 10.9%
41 | CCN(CC)CCn1c(=N)n(CC(=O)c2ccc(C)cc2)c2ccccc21 | inactive: -49.4%
42 | NC(=O)Cn1c2[n+](c3ccccc31)CC(O)CS2 (configuration not stated) | inactive: 18.2%
43 | CCC(=O)Nc1ccc(NC(=O)/C=C/c2ccc(Cl)cc2)cc1 | inactive: 0.53%
44 | c1ccc2c(c1)nc(NCc1ccc3c(c1)OCO3)n2CCN1CCOCC1 | inactive: 25.5%
45 | COc1ccc(N)c([N+](=O)[O-])c1[N+](=O)[O-] | inactive: 9.92%
46 | CC(C)(C)NC(=O)Cn1c(Cl)nc2ccccc21 | inactive: 13.5%

Row | SMILES | inhibition
47 | Cc1ccc(/C=N/NC(=O)Cn2cnc3c2c(=O)n(C)c(=O)n3C)s1 | inactive: -2.19%
48 | COC(=O)[C@H](CC(C)C)NC(=O)Cn1cnc2c(NCc3ccccc3)ncnc21 | inactive: 12.5%
49 | O=C(Cn1cnc2ccccc21)Nc1ccc2c(c1)OCCCO2 | inactive: 0.15%
50 | Cc1nnc(NC(=O)Cn2cnc3c2c(=O)n(C)c(=O)n3C)s1 | inactive: 7.71%
51 | CC(O)c1nc2ccccc2n1CC(=O)Nc1ccc2c(c1)OCCO2 (configuration not stated) | inactive: -0.49%
52 | CSCC[C@H](NC(=O)N1CCn2c1nc1ccccc12)C(=O)NCC1CCCO1 (some centres not stated) | inactive: 14.7%
53 | CSc1ccccc1NC(=O)Cn1c(-c2cscn2)nc2ccccc21 | inactive: 16.9%
54 | O=C(Cn1cnc2ccccc21)N/N=C/c1ccccn1 | inactive: 18.4%
55 | O=C(Cn1cnc2c(OCc3ccccc3)ncnc21)NCc1nc2ccccc2[nH]1 | inactive: 20.6%
56 | O=C(OC1CN2CCC1CC2)c1cccc(Cl)c1 (configuration not stated) | inactive: 11.1%
57 | CC(C)C[C@H](NC(=O)N1CCn2c1nc1ccccc12)C(=O)N[C@@H](Cc1ccccc1)C(=O)O | inactive: 0.92%
58 | COc1ccc(N2C(=O)CC(N3CCC(n4c(=O)[nH]c5ccccc54)CC3)C2=O)cc1 (configuration not stated) | inactive: 12.5%
59 | CCn1c(N)[n+](CC(=O)Nc2ccc(SC(F)F)cc2)c2ccccc21 | inactive: -229%
60 | O=C(Nc1cccc(F)c1)N1CCC(n2c(=O)[nH]c3ccccc32)CC1 | inactive: -3.35%
61 | COc1cc(C(=O)OCCn2c(=O)c3c(ncn3CCN(C)C)n(C)c2=O)cc(OC)c1OC | inactive: 5.36%
62 | COCCOC(=O)C1=C(C)N=C2SCCC(=O)N2C1/C=C/c1ccccc1 (configuration not stated) | inactive: -1.72%
63 | Cc1ccc2c(c1)C1CN(C)CCC1N2C(=O)/C=C/c1ccc2c(c1)OCO2 (configuration not stated) | inactive: 2.63%
64 | O=C(Cn1c(CC(=O)N2CCCC2)nc2ccccc21)NCc1ccccc1 | inactive: -3.77%
65 | COc1ccc(CCNC(=O)Cn2cnc3c2c(=O)n(C)c(=O)n3C)cc1OC | inactive: 7.56%
66 | Cn1c(=O)[nH]c(=O)c2c1nc(CN(Cc1ccccc1)Cc1ccccc1)n2CCN1CCOCC1 | inactive: 14.6%
67 | C(Cc1nn[nH]n1)Cc1nn[nH]n1 | inactive: 15.7%
68 | O=C(Nc1ccccc1Cl)N1CCn2c(nc3ccccc32)C1 | inactive: 7.34%
69 | CSCC[C@H](NC(=O)N1CCn2c1nc1ccccc12)C(=O)NCc1ccc(F)cc1 | inactive: 9.99%

Row | SMILES | inhibition
70 | N=c1n(CCO)c2ccccc2n1CCN1CCCCC1 | inactive: 3.28%
71 | Nc1ccc([As](=O)(O)c2ccc([N+](=O)[O-])cc2)cc1 | inactive: 5.86%
72 | COc1ccc(C(=O)N2CCn3c2nc2ccccc23)cc1 | inactive: 8.52%
73 | CC(=O)Nc1ccc2c(c1)nc1n2CCN(C(C)c2ccccc2)C1 (configuration not stated) | inactive: 18.4%
74 | CN(C)C(=O)Cn1c(SCC(=O)NC2CCCCC2)nc2ccccc21 | inactive: -0.38%
75 | CCN(CC)CCn1c(NC(=O)c2ccccc2O)nc2ccccc21 | inactive: -31.2%
76 | Cc1nc2ccc(S(=O)(=O)NC(C(=O)N3CCn4c3nc3ccccc34)C(C)C)cc2s1 (configuration not stated) | inactive: 10.4%
77 | COCC(C)NC(=O)Cn1c(SCc2ccccc2)nc2ccccc21 (configuration not stated) | inactive: 12.2%
78 | CS(=O)(=O)Cc1nc2ccccc2n1CC(=O)Nc1cccc(S(=O)(=O)N2CCCC2)c1 | inactive: 11.3%
79 | CCOc1ccc(NC(=O)N2CCC(n3c(=O)[nH]c4ccccc43)CC2)cc1 | inactive: -2.64%
80 | O=C(Cn1c(=O)n(CC2CS2)c2ccccc21)N1CCCCC1 (configuration not stated) | inactive: 10.5%
81 | Cc1nc2cc(C(F)(F)F)ccc2n1C1CCN(Cc2nnnn2Cc2cccs2)CC1 | inactive: 1.29%
82 | O=C(Cn1cnc2c(NCc3ccccc3)ncnc21)NCc1ccccc1 | inactive: 18.4%
83 | CC1CCCC(NC(=O)Cn2c(Cl)nc3c2c(=O)n(C)c(=O)n3C)C1C (configuration not stated) | inactive: 13.8%
84 | O=[As](O)(c1ccccc1)c1ccc(O)cc1 | inactive: 11.4%
85 | CCn1nccc1C(=O)Nc1nc2ccccc2n1CCN1CCCCC1 | inactive: 8.48%
86 | N=c1n(CCN2CCOCC2)c2ccccc2n1CC(=O)c1ccc(Cl)c(Cl)c1 | inactive: -8.93%
87 | CCOC(=O)C1=C(Cn2cnc3ccccc32)NC(=O)NC1c1cc(C)ccc1C (configuration not stated) | inactive: 11.4%
88 | O=[N+]([O-])c1ccc(O)c(/C=N/Nc2ccc([N+](=O)[O-])cc2[N+](=O)[O-])c1 | inactive: -9.53%
89 | O=[N+]([O-])c1ncn(CCn2cnc([N+](=O)[O-])n2)n1 | inactive: 0.14%
90 | CC(=O)NC(SC(=S)N(C)C)C(Cl)(Cl)Cl (configuration not stated) | inactive: 1.96%
91 | O=C(Cn1cnc2c(OCc3ccccc3)ncnc21)NCc1ccc2[nH]ccc2c1 | inactive: 13.4%
92 | CCC(=O)Nc1cccc(C(=O)/C=C/c2ccccc2)c1 | inactive: -16.7%
